Values quoted from earlier work, collected in PubChem BioAssay AID977611.

How the values were obtained:
Test in all cases: PubChem AID 977611
thrombin alpha = details: PDB protein-ligand complexes, literature Kd; protein: thrombin alpha; PDB entry 1BCU
[1] = target: transcriptional regulator qacr; details: PDB protein-ligand complexes, literature Kd, protein: transcriptional regulator qacr
[2] = target: TetR-like transcriptional repressor LfrR from Mycobacterium smegmatis; details: PDB protein-ligand complexes, literature Kd; protein: TetR-like transcriptional repressor LfrR from Mycobacterium smegmatis; PDB entry 2V57
[3] = target: fructose 1,6-bisphosphate aldolase; details: PDB protein-ligand complexes, literature Kd; protein: fructose 1,6-bisphosphate aldolase; PDB entry 1ADO
[4] = target: C-terminal effector-binding domain of CggR; details: PDB protein-ligand complexes, literature Kd; protein: C-terminal effector-binding domain of CggR; PDB entry 3BXE
apoferritin = details: PDB protein-ligand complexes, literature Kd; protein: apoferritin; PDB entry 3U90
Acetyl-CoA carboxylase = details: PDB protein-ligand complexes, literature Kd; protein: Acetyl-CoA carboxylase; PDB entry 3TV5
RNA polymerase = details: PDB protein-ligand complexes, literature Kd; protein: RNA polymerase; PDB entry 3SFG
[5] = target: fatty acid-binding protein; details: PDB protein-ligand complexes, literature Kd; protein: fatty acid-binding protein; PDB entry 1FDQ
[6] = target: Enantio-pyochelin receptor; details: PDB protein-ligand complexes, literature Kd; protein: Enantio-pyochelin receptor; PDB entry 3QLB
[7] = target: Polyamine transport protein; details: PDB protein-ligand complexes, literature Kd; protein: Polyamine transport protein; PDB entry 3TTM
[8] = target: putrescine-binding protein; details: PDB protein-ligand complexes, literature Kd; protein: putrescine-binding protein; PDB entry 1A99
Toxin A = details: PDB protein-ligand complexes, literature Kd; protein: Toxin A; PDB entry 4DMW
[9] = target: Human O-GlcNAc transferase (OGT); details: PDB protein-ligand complexes, literature Kd; protein: Human O-GlcNAc transferase (OGT); PDB entry 4AY5
GLUCOSYLTRANSFERASE = details: PDB protein-ligand complexes, literature Kd; protein: GLUCOSYLTRANSFERASE; PDB entry 2WZF
[10] = target: Apis mellifera Odorant-Binding Proteins (OBP14); details: PDB protein-ligand complexes, literature Kd; protein: Apis mellifera Odorant-Binding Proteins (OBP14); PDB entry 3S0E
lectin = details: PDB protein-ligand complexes, literature Kd; protein: lectin; PDB entry 1AX2
[11] = target: N-terminal domain of RSK2 kinase; details: PDB protein-ligand complexes, literature Kd; protein: N-terminal domain of RSK2 kinase; PDB entry 3UBD
[12] = target: nadph-flavin oxidoreductase; details: PDB protein-ligand complexes, literature Kd; protein: nadph-flavin oxidoreductase; PDB entry 1BKJ
[13] = target: Aplysia californica acetylcholine-binding protein (AChBP); details: PDB protein-ligand complexes, literature Kd; protein: Aplysia californica acetylcholine-binding protein (AChBP); PDB entry 4AFT
[14] = target: Peptidyl-prolyl cis-trans isomerase NIMA-interacting 1; details: PDB protein-ligand complexes, literature Kd; protein: Peptidyl-prolyl cis-trans isomerase NIMA-interacting 1; PDB entry 3TC5
R7-2 streptavidin = details: PDB protein-ligand complexes, literature Kd; protein: R7-2 streptavidin; PDB entry 3RDQ
[15] = target: HIV-1 clade C1086 gp120 core; details: PDB protein-ligand complexes, literature Kd; protein: HIV-1 clade C1086 gp120 core; PDB entry 3TGS
[16] = target: Outer membrane protein omp38; details: PDB protein-ligand complexes, literature Kd; protein: Outer membrane protein omp38; PDB entry 3TD4
[17] = target: Phosphoethanolamine N-methyltransferase; details: PDB protein-ligand complexes, literature Kd; protein: Phosphoethanolamine N-methyltransferase; PDB entry 3UJ9
[18] = target: Phosphoethanolamine N-methyltransferase Y19F mutant; details: PDB protein-ligand complexes, literature Kd; protein: Phosphoethanolamine N-methyltransferase Y19F mutant; PDB entry 3UJD
[19] = target: Phosphoethanolamine N-methyltransferase H132A mutant; details: PDB protein-ligand complexes, literature Kd; protein: Phosphoethanolamine N-methyltransferase H132A mutant; PDB entry 3UJC
[20] = target: Mevalonate diphosphate decarboxylase; details: PDB protein-ligand complexes, literature Kd; protein: Mevalonate diphosphate decarboxylase; PDB entry 3QT7
[21] = target: maltose-binding periplasmic protein; details: PDB protein-ligand complexes, literature Kd; protein: maltose-binding periplasmic protein; PDB entry 1EZ9
[22] = target: fk506 binding protein (fkbp); details: PDB protein-ligand complexes, literature Kd; protein: fk506 binding protein (fkbp); PDB entry 1F40
GTPase KRas, isoform 2B = details: PDB protein-ligand complexes, literature Kd; protein: GTPase KRas, isoform 2B; PDB entry 4DSU
[23] = target: SN-GLYCEROL-3-PHOSPHATE-BINDING PERIPLASMIC PROTEIN UGPB; details: PDB protein-ligand complexes, literature Kd; protein: SN-GLYCEROL-3-PHOSPHATE-BINDING PERIPLASMIC PROTEIN UGPB; PDB entry 4AQ4
tyrosine kinase btk = details: PDB protein-ligand complexes, literature Kd; protein: tyrosine kinase btk; PDB entry 1B55
[24] = target: dual adaptor of phosphotyrosine and 3 phosphoinositides; details: PDB protein-ligand complexes, literature Kd; protein: dual adaptor of phosphotyrosine and 3 phosphoinositides; PDB entry 1FAO
[25] = target: Fermitin family homolog 2; details: PDB protein-ligand complexes, literature Kd; protein: Fermitin family homolog 2; PDB entry 2LKO
bruton's tyrosine kinase = details: PDB protein-ligand complexes, literature Kd; protein: bruton's tyrosine kinase; PDB entry 1BWN
[26] = target: Poly [ADP-ribose] polymerase 14; details: PDB protein-ligand complexes, literature Kd; protein: Poly [ADP-ribose] polymerase 14; PDB entry 4F1Q
[27] = target: HTH-type transcriptional regulator qacR, QacR E90Q; details: PDB protein-ligand complexes, literature Kd; protein: HTH-type transcriptional regulator qacR, QacR E90Q; PDB entry 3PM1
[28] = target: PROBABLE TRANSCRIPTIONAL REGULATORY PROTEIN (PROBABLY DEOR-FAMILY); details: PDB protein-ligand complexes, literature Kd; protein: PROBABLE TRANSCRIPTIONAL REGULATORY PROTEIN (PROBABLY DEOR-FAMILY); PDB entry 3V78
[29] = target: Transporter(F253A mutant); details: PDB protein-ligand complexes, literature Kd; protein: Transporter(F253A mutant); PDB entry 4FXZ
Transporter = details: PDB protein-ligand complexes, literature Kd, protein: Transporter
sucrose-specific porin = details: PDB protein-ligand complexes, literature Kd; protein: sucrose-specific porin; PDB entry 1A0T
maltoporin = details: PDB protein-ligand complexes, literature Kd; protein: maltoporin; PDB entry 1AF6

In the case of Nc1ccc2cc3ccc(N)cc3nc2c1, the Kd (thrombin alpha) is given as 530 µM, the Kd ([1]; PDB entry 1QVT) is given as 42 µM and the Kd ([1]; PDB entry 1QVU) is given as 35 µM. For the same compound, the Kd [2] was 0.079 µM.
In the case of O=C(CO)COP(=O)(O)O, the Kd [3] is listed as 1 µM and the Kd [4] is listed as 3.34 µM.
In the case of CCCCCCCCCCCCOS(=O)(=O)O, the Kd (apoferritin) is listed as 24 µM.
For O=C(c1c2ccccc2cc2ccccc12)N1CCC(N2CCC[C@@H](C(=O)N3CCOCC3)C2)CC1, the Kd (Acetyl-CoA carboxylase) is listed as 4.8 µM.
For O=c1ccn([C@@H]2O[C@H](CO)[C@@H](O)[C@H]2O)c(=S)[nH]1, the Kd (RNA polymerase) is given as 0.865 µM.
For CC/C=C\C/C=C\C/C=C\C/C=C\C/C=C\C/C=C\CCC(=O)O, the Kd [5] is listed as 0.0534 µM.
For O=C([O-])CC(O)(CC(=O)[O-])C(=O)[O-].[CH2-][NH+]1[C@@H](C(=O)[O-])CS[C@H]1[C@@H]1CSC(c2ccccc2O)=N1.[Fe] (stereo not given in full), the Kd [6] is listed as 0.0037 µM.
In the case of NCCCCN, the Kd [7] is listed as 0.003 µM and the Kd [8] is listed as 2 µM.
For O=c1ccn([C@@H]2O[C@H](COP(=O)(O)OP(=O)(O)O)[C@@H](O)[C@H]2O)c(=O)[nH]1, the Kd (Toxin A) is given as 11.4 µM, the Kd [9] is given as 0.54 µM and the Kd (GLUCOSYLTRANSFERASE) is given as 0.1 µM.
In the case of C=CCc1ccc(O)c(OC)c1, the Kd [10] is given as 0.28 µM.
For CC(=O)N[C@@H]1[C@@H](O)[C@H](O[C@@H]2O[C@H](CO)[C@H](O)[C@H](O)[C@H]2O)[C@@H](CO)O[C@@H]1O, the Kd (lectin) is given as 103 µM.
For CC(=O)O[C@@H]1[C@@H](OC(C)=O)[C@@H](O)[C@H](Oc2c(-c3ccc(O)cc3)oc3cc(O)cc(O)c3c2=O)O[C@H]1C, the Kd [11] is listed as 2.9 µM.
In the case of Cc1cc2nc3c(=O)[nH]c(=O)nc-3n(CC(O)[C@H](O)[C@H](O)COP(=O)(O)O)c2cc1C (stereo not given in full), the Kd [12] is given as 0.17 µM.
In the case of c1cnc2cc3c(cc2n1)[C@@H]1CNC[C@H]3C1, the Kd [13] is listed as 0.342 µM.
For C[C@@H]1C[C@H]2[C@@H]3CCC4=CC(=O)C=C[C@]4(C)[C@@]3(F)[C@@H](O)C[C@]2(C)[C@@]1(O)C(=O)COP(=O)(O)O, the Kd [14] is given as 6.8 µM.
For C[C@@H]1NC(=O)N[C@@H]1CCCCCC(=O)O, the Kd (R7-2 streptavidin) is given as 0.00049 µM.
For CC1(C)CC(NC(=O)C(=O)Nc2ccc(Cl)cc2)CC(C)(C)N1, the Kd [15] is given as 4.1 µM.
In the case of N[C@H](CCC[C@H](N)C(=O)O)C(=O)O, the Kd [16] is given as 2.2 µM.
For C[N+](C)(C)CCOP(=O)([O-])O, the Kd [17] is listed as 23.4 µM, the Kd [18] is listed as 20.2 µM and the Kd [19] is listed as 26 µM.
For O=C(O)C[C@@](O)(CF)CCOP(=O)(O)OP(=O)(O)O, the Kd [20] is listed as 0.049 µM.
For OC[C@@H](O)[C@@H](O[C@H]1O[C@H](CO)[C@@H](O[C@H]2O[C@H](CO)[C@@H](O[C@H]3O[C@H](CO)[C@@H](O)[C@H](O)[C@H]3O)[C@H](O)[C@H]2O)[C@H](O)[C@H]1O)[C@H](O)[C@@H](O)CO, the Kd [21] is given as 8 µM.
In the case of CCC(C)(C)C(=O)C(=O)N1CCC[C@H]1C(=O)OCCCc1cccnc1, the Kd [22] is given as 1 µM.
In the case of c1ccc2[nH]cnc2c1, the Kd (GTPase KRas, isoform 2B) is listed as 1500 µM.
For O=P(O)(O)OC[C@H](O)CO, the Kd [23] is listed as 0.68 µM.
In the case of O=P(O)(O)OC1[C@H](O)[C@H](OP(=O)(O)O)C(OP(=O)(O)O)[C@H](OP(=O)(O)O)[C@H]1O (stereo not given in full), the Kd (tyrosine kinase btk) is listed as 0.04 µM, the Kd [24] is listed as 0.043 µM and the Kd [25] is listed as 2.12 µM. For the same compound, the Kd (bruton's tyrosine kinase) was 0.087 µM.
For NC(=O)c1cccc(NC(=O)CCC(=O)O)c1, the Kd [26] is listed as 11.2 µM.
In the case of CCN1c2cc(N)ccc2-c2ccc(N)cc2C1c1ccccc1 (stereo not given), the Kd [27] is listed as 1.18 µM and the Kd [28] is listed as 2.9 µM.
In the case of CC(C)C[C@H](N)C(=O)O, the Kd [29] is listed as 0.0943 µM, the Kd (Transporter; PDB entry 3F3E) is listed as 0.02 µM and the Kd (Transporter; PDB entry 3GJD) is listed as 0.0468 µM.
In the case of OC[C@H]1O[C@@](CO)(O[C@H]2O[C@H](CO)[C@@H](O)[C@H](O)[C@H]2O)[C@@H](O)[C@@H]1O, the Kd (sucrose-specific porin) is given as 50000 µM and the Kd (maltoporin) is given as 15000 µM.
